# Experimental data taken from PubChem BioAssay AID912 (National Center for Advancing Translational Sciences (NCATS), 2007).
# This is a selection; strong and weak results do not stand in their true shares. Some results for these compounds are left out of this collection, so the calls shown say nothing about other tests. Inconclusive results are not listed. The source made the active and inactive calls. Calls follow the shape of the full dose curve.
# Test: qHTS Assay for Anthrax Lethal Toxin Internalization; also: nearly all actives have a fitted effect of over 50% in size
# Conditions: Cells, FRET ratio (460/530); at 8 µM (top of the series) unless noted
# % is scaled to controls: 0 for no effect and ±100 for the full control effect.
row,Structure (SMILES),"activity change, negative = inhibition"
1,CN1CCC[C@H](OC(=O)[C@](O)(c2ccccc2)C2CCCC2)C1,inactive: -14.4%
2,CN1CC[C@H](OC(=O)[C@](O)(c2ccccc2)C2CCCC2)C1,inactive: -11.1%
3,O=C(OC1CN2CCC1CC2)C(CO)(c1ccccc1)c1ccccc1 (centres undefined),inactive: -6.03% [at 40 µM]
4,CN(C)c1cccc(C(=O)NCC2(N(C)C)CCCCC2)c1,inactive: -7.72% [at 40 µM]
